Source: patent US20250108038A1 (priority 2023, published 2025)

Key:
[1] = Metabolic stability in human intestinal homogenate; format: in vitro ADME; conditions: positive controls, 1 μM
OAT3 = target: T1, OAT3 (Homo sapiens, UniProt Q8TCC7); assay: Uptake transporter inhibition assay, OAT3 (estrone-3-sulfate); conditions: 500.00 μM, reference inhibitor
T1 sequence (Q8TCC7 1-542): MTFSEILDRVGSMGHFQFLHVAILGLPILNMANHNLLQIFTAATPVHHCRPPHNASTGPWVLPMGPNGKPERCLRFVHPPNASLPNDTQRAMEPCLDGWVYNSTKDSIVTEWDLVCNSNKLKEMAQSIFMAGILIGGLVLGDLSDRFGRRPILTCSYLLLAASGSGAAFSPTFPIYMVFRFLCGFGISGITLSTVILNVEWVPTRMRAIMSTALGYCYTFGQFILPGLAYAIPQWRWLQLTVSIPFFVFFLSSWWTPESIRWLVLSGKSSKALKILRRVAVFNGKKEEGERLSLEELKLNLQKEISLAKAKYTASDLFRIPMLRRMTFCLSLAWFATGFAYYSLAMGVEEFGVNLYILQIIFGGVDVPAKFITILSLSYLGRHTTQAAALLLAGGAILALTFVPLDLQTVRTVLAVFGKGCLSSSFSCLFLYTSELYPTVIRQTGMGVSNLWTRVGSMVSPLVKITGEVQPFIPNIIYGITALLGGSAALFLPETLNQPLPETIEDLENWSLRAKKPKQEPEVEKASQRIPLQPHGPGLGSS

Structure (SMILES) | Time [1] [min] | Relative transporter specific accumulation (OAT3)
O=c1ccc2ccc(O)cc2o1 [7-hydroxycoumarin, reference compound] | 91.1 | –
CCCN(CCC)S(=O)(=O)c1ccc(C(=O)O)cc1 [Probenecid] | – | 2.64 ± 0.09 % of control
